These are literature values, as cited in patent US5700682A, “Mechanism based screen for retinoid X receptor agonists and antagonists” (American Cyanamid Company, priority 1995, dated 1997).

The test system of this series is RXRα and RARα together. Conditions: mammalian cells; low concentrations of ligand; cited from earlier work.

As to `CC1=C(/C=C/C(C)=C\C=C\C(C)=C\C(=O)O)C(C)(C)CCC1` [9-cis-RA, 9-cis-retinoic acid], the “Activation of transcription by RXRα and RARα together” value is reported as “can activate transcription”.

As to `CC1=C(/C=C/C(C)=C/C=C/C(C)=C/C(=O)O)C(C)(C)CCC1` [all-trans-RA, all-trans-retinoic acid], the “Activation of transcription by RXRα and RARα together” value was “can activate transcription”.
